The source of these data is ChEMBL document CHEMBL2169869, “Assay and inhibition of diacylglycerol lipase activity” (Bioorg Med Chem Lett, 2012).

By UniProt entry, the sequences of proteins in these tests, tags left out.
UniProt Q9Y4D2, whole entry, looked up: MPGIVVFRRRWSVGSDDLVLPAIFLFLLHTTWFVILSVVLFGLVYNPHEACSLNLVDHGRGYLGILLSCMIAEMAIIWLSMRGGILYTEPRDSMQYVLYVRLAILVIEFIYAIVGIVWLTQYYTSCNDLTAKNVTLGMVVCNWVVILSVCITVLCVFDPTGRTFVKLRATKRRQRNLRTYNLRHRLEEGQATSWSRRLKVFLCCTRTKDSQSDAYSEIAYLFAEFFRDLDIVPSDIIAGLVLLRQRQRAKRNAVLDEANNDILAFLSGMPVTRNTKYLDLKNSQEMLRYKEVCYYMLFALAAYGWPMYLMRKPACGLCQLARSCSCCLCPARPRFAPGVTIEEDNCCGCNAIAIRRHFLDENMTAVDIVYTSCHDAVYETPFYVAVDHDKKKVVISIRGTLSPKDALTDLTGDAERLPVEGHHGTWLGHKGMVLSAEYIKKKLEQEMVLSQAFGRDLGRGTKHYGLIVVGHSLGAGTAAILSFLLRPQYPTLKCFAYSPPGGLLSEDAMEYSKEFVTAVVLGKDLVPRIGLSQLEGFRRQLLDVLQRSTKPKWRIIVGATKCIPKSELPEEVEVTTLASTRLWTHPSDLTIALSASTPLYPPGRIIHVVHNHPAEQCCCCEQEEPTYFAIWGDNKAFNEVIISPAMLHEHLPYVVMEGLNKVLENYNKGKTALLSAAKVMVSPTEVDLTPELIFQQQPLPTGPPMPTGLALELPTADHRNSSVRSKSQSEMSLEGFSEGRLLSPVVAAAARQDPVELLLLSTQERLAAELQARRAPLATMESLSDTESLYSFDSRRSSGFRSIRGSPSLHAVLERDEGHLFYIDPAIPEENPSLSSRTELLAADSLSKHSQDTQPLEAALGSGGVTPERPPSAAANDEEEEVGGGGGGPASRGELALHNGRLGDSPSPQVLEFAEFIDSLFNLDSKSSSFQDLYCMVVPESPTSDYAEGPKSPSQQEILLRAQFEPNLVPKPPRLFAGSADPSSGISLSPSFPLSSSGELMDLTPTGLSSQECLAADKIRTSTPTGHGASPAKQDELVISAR

In the assay the target is Diacylglycerol lipase-alpha (Homo sapiens, UniProt Q9Y4D2). In words: Inhibition of human DAGLalpha. As to conditions: read-out: IC50(app).

A word on the IC50: it is the concentration needed to halve the response being measured. Take `CCCCCCCC/C=C\CCCCCCCC(=O)OC(COC)COP(C)(=O)F` (stereo unspecified): the IC50 turned out to be 160 nM.
